The target of the experiment is Human immunodeficiency virus type 1 protease (Human immunodeficiency virus 1, UniProt Q72874). The experiment can be described thus: Inhibitory activity against HIV-1 protease.

Broadly, the Ki is a measure of affinity in units of concentration, obtained from inhibition or displacement. Higher therefore signals weaker binding.

`CC(C)(C)NC(=O)[C@@H]1C[C@@H]2CCCC[C@@H]2CN1C[C@@H](O)[C@H](Cc1ccccc1)NC(=O)O[C@H]1CCOC1` yielded a Ki of 87 nM.

The values above are taken from ChEMBL document CHEMBL1131511, “Potent HIV protease inhibitors incorporating high-affinity P2-ligands and (R)-(hydroxyethylamino)sulfonamide isostere” (Bioorg Med Chem Lett, 1998).
